# Experimental data taken from PubChem BioAssay (EPA / NIEHS).
# The chains behind the UniProt entries cited, without tags or fusion partners. Where a name states a change or a piece, a line headed by the entry shows the natural chain unless it says otherwise.
# UniProt Q96RI1: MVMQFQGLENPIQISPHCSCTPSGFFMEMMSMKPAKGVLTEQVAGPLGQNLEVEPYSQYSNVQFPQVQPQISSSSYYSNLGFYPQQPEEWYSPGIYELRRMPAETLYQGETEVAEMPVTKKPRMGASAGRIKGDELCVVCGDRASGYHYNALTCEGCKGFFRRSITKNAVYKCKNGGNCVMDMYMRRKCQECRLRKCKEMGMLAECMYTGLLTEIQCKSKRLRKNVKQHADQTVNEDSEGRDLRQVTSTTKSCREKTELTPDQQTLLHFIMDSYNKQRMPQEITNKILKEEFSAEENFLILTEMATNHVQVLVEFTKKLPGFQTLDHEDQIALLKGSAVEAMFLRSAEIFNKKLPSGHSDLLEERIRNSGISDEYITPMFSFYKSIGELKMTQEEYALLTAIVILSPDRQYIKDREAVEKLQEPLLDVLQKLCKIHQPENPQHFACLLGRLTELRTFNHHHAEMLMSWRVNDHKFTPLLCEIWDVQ
# UniProt Q07869: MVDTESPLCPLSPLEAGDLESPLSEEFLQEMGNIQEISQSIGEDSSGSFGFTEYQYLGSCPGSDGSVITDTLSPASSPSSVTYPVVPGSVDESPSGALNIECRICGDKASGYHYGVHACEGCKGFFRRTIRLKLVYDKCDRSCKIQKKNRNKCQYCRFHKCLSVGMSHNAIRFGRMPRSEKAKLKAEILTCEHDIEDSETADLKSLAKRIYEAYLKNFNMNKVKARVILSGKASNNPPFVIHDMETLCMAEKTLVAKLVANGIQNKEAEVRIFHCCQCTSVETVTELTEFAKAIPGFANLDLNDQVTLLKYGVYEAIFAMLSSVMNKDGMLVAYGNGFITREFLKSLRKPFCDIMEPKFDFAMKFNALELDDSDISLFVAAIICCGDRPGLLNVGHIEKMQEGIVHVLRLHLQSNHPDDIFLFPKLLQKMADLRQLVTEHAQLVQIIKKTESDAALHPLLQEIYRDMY
# This is a selection; strong and weak results do not stand in their true shares. Results filed as inconclusive are left out. Activity calls are given as the source filed them. How the source made its calls, unless noted: active means hit-call score of the fitted dose curve at least 0.9, where 1 is the maximum; inactive means score below 0.9.
# What was measured:
# [1] = ATG_PPRE_CIS: Attagene CIS-FACTORIAL HepG2 Assay for human Peroxisome Proliferator-activated Response Element (PPRE) (AID 2282958); conditions: HepG2 PPRE cis-element reporter, Attagene transcription factor profiling; actives raise or lower the signal
# [2] = ATG_RORE_CIS: Attagene CIS-FACTORIAL HepG2 Assay for human RAR-related Orphan Receptor Element (RORE) (AID 2282959); conditions: HepG2 Attagene cis-factorial RORE reporter, mRNA; actives raise or lower the signal
# [3] = biological target: Bile acid receptor (Homo sapiens) (UniProt Q96RI1); experiment: OT_FXR_FXRSRC1_0480: Odyssey Thera (OT) 8-hour HEK293T Protein-Complementation Assay for Farnesoid X receptor/SRC-1 Co-activator (AID 2283383; active means hit-call score of the fitted dose curve at least 0.9, where 1 is the maximum)
# Outline: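 Co-activator recruitment to FXR was measured in living HEK293T cells, where interaction of the two fused partners restored an active fluorescent reporter. Signal gain after 8 h treatment was referenced to DMSO.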
# [4] = biological target: Bile acid receptor (Homo sapiens) (UniProt Q96RI1); experiment: OT_FXR_FXRSRC1_1440: Odyssey Thera (OT) 24-hour HEK293T Protein-Complementation Assay for Farnesoid X receptor/SRC-1 Co-activator (AID 2283384; active means hit-call score of the fitted dose curve at least 0.9, where 1 is the maximum)
# Outline: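 Cell-based binding reporter: interaction of FXR with SRC-1 brings reporter fragments together, giving a fluorescence signal read 24 h after dosing of HEK293T cells.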
# [5] = biological target: human Peroxisome Proliferator-activated Receptor alpha (PPARa), PPARA (gene 5465) (UniProt Q07869); experiment: ATG_PPARa_TRANS: Attagene TRANS-FACTORIAL HepG2 Assay for human Peroxisome Proliferator-activated Receptor alpha (PPARa) (AID 2283001; active means hit-call score of the fitted dose curve at least 0.9, where 1 is the maximum;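 further: potency for gain of reporter signal over DMSO so agonist or activator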)
# Outline: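 Measures transcriptional activity of an exogenous chimeric PPARa-Gal4 protein in transiently transfected HepG2 cells after 24 h dosing. Reporter mRNA quantified via RT-PCR and capillary electrophoresis; DMSO served as negative control.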
# [6] = biological target: human Peroxisome Proliferator-activated Receptor alpha (PPARa), PPARA (gene 5465) (UniProt Q07869); experiment: NVS_NR_hPPARa: NovaScreen (NVS) Nuclear Receptor Binding Assay for human Peroxisome Proliferator-activated Receptor alpha (PPARa) (AID 2283359; active means hit-call score of the fitted dose curve at least 0.9, where 1 is the maximum;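 further: activity means loss of TR-FRET signal versus DMSO baseline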)
# Outline: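 Cell-free TR-FRET binding assay with extracted PPARα protein, read 1 h after dosing. Primary screen in duplicate at 25 uM, with actives retested in concentration series. Loss of signal versus DMSO.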
structure (smiles),measurement,setting,value
CC(C)=CCCC(C)=CC#N,outcome,[1],inactive
CCCCc1ccc2c(n1)[C@@H](c1ccc(OC)cc1C[C@H](C)C(=O)O)[C@H](C(=O)O)[C@H]2c1ccc2c(c1)OCO2,outcome,[1],inactive
CC1=CC(C)C(C=O)C(C)C1 (centres undefined) (tested in a mixture with another compound),outcome,[1],inactive
O=C(O)CC(O)C(=O)O (centres undefined),outcome,[1],inactive
c1ccc2occc2c1,outcome,[1],inactive
CCCCCCO,outcome,[1],inactive
CCCC1CCOC(C)S1 (centres undefined),outcome,[1],inactive
Brc1ccc(Br)c(Br)c1,outcome,[1],inactive
CC(=O)Oc1ccccc1C(=O)O,AC50,[1],active: 36.2 µM
c1ccc2c(c1)Cc1ccccc1-2,outcome,[1],inactive
C=CC(C)(CCC=C(C)C)OC(=O)CC (centres undefined),outcome,[1],inactive
OC1OC[C@@H](O)[C@H](O)[C@H]1O (some centres undefined),outcome,[1],inactive
c1ccc(Cc2ccccc2)cc1,outcome,[1],inactive
C=C(C)C(=O)Nc1ccc(Cl)c(Cl)c1,outcome,[1],inactive
CC(C)(CO)[N+](=O)[O-],outcome,[1],inactive
Clc1ccc(Sc2cc(Cl)c(Cl)cc2Cl)cc1,outcome,[1],inactive
Cc1cccc(C(C)(C)C)c1O,outcome,[1],inactive
O=C1CCCC1,outcome,[1],inactive
CCOC(=O)CCCCCCCCC(=O)OCC,outcome,[1],inactive
O=C1c2cccc(O)c2C(=O)c2c(O)cc(CO)cc21,outcome,[1],inactive
COCCOCCOCCOC,outcome,[1],inactive
CC(C)OB(OC(C)C)OC(C)C,outcome,[1],inactive
C/C=C(\C)C(=O)OCc1ccccc1,outcome,[1],inactive
O=[N+]([O-])c1ccc(C=Cc2ccc([N+](=O)[O-])cc2S(=O)(=O)O)c(S(=O)(=O)O)c1,outcome,[1],inactive
CCN(CCN)c1cccc(C)c1,outcome,[1],inactive
CC1=NC(C)OC1C (centres undefined),outcome,[1],inactive
c1ccc(CN(Cc2ccccc2)Cc2ccccc2)cc1,outcome,[1],inactive
CCCCOCCOC(=O)COc1ccc(Cl)cc1Cl,outcome,[1],inactive
CCCCCCOc1ccc(N)cc1,outcome,[1],inactive
CCCN(CCC)C(=O)SCC,outcome,[1],inactive
CCCc1ccccc1O,outcome,[1],inactive
CCCCOCC(C)O (centres undefined),outcome,[1],inactive
CC(C)C1CCC(O)CC1 (centres undefined),outcome,[1],inactive
CC(C)=CCCC(C)=CC(=O)O,outcome,[1],inactive
Cc1ccncc1,outcome,[1],inactive
c1ccc(Sc2ccccc2)cc1,outcome,[1],inactive
N#[N+]c1ccc2c(S(=O)(=O)[O-])cccc2c1O,outcome,[1],inactive
O=C(OCc1ccccc1)c1ccc(O)cc1,AC50,[1],active: 42.5 µM
CC1=NN(c2ccc(S(=O)(=O)O)cc2)C(=O)C1,outcome,[1],inactive
CC1OC1C1CCC2(C)OC2C1 (centres undefined),outcome,[1],inactive
CCOC(=O)CC(O)(CC(=O)OCC)C(=O)OCC,outcome,[1],inactive
CCCCCCCCCC(C)C=O (centres undefined),AC50,[1],active: 12.6 µM
F[B-](F)(F)F,outcome,[1],inactive
CC(C)c1ccc(C(C)C)cc1,outcome,[1],inactive
O=C(O)C1CCC(C(=O)O)CC1 (centres undefined),outcome,[1],inactive
CC1=NN(c2cc(Cl)c(S(=O)(=O)O)cc2Cl)C(=O)C1N=Nc1ccc(S(=O)(=O)O)cc1 (centres undefined),outcome,[1],inactive
CC(C)(C)c1cc(/C=C2\SC(N)=NC2=O)cc(C(C)(C)C)c1O,outcome,[1],inactive
Oc1ccc(C(c2ccc(O)cc2)C(Cl)(Cl)Cl)cc1,outcome,[1],inactive
CC1(C)OC[C@@H]2O[C@@]3(C(=O)O)OC(C)(C)O[C@H]3[C@@H]2O1,outcome,[1],inactive
O=C(Nc1ccccc1SSc1ccccc1NC(=O)c1ccccc1)c1ccccc1,AC50,[1],active: 47.7 µM
C1=CC2C3C=CC(C3)C2C1 (centres undefined),outcome,[1],inactive
COC(Cc1ccccc1)OC,outcome,[1],inactive
CC(CCO)CC(C)(C)C (centres undefined),outcome,[1],inactive
CCCCNS(=O)(=O)c1ccccc1,outcome,[1],inactive
SCCc1cnccn1,outcome,[1],inactive
CNC(=S)N(C)C,outcome,[1],inactive
CCCCC(=O)O,outcome,[1],inactive
CC(C)CCOCc1ccccc1,outcome,[1],inactive
C=C(C)C(=O)OCCOCCOCCOC(=O)C(=C)C,outcome,[1],inactive
Cc1cc(O)c(Cl)c(C)c1Cl,outcome,[1],inactive
O=C(c1ccccc1)c1ccccc1O,outcome,[1],inactive
Cc1ccc2oc(CN(Cc3ccccc3)C(=O)Nc3c(F)cc(F)cc3F)c(-c3ccc(Cl)cc3)c2c1,outcome,[1],inactive
Cc1cc(CCN2CCN(c3nsc4ccccc34)CC2)cc2c1NC(=O)CC2(C)C,outcome,[1],inactive
CC1CCC2CC1C2(C)C (centres undefined),outcome,[1],inactive
CC(C)(C)C(=O)C=Cc1ccc(Cl)cc1,AC50,[1],active: 26.2 µM
CCCCCCCO,outcome,[1],inactive
CCCC(C)C(O)CC (centres undefined),outcome,[1],inactive
CC(C)c1ccc(C(=O)N=C(N)N)cc1S(C)(=O)=O,outcome,[1],inactive
O=C(Nc1ccccc1)c1cc(Cl)ccc1O,AC50,[1],active: 15.1 µM
CCCCCCCCCCCC(=O)OCC(O)CO (centres undefined),outcome,[1],inactive
CC(C)(C#N)c1cc(Cn2cncn2)cc(C(C)(C)C#N)c1,outcome,[1],inactive
CC(=O)OC(C)c1ccccc1 (centres undefined),outcome,[1],inactive
CC(=O)S[C@H](C(=O)N[C@H]1Cc2ccccc2[C@H]2CCC[C@@H](C(=O)O)N2C1=O)C(C)C,outcome,[1],inactive
O=C(Nc1ccc2c(O)c(N=Nc3ccc(N=Nc4ccc(S(=O)(=O)O)cc4)cc3)c(S(=O)(=O)O)cc2c1)c1ccccc1,outcome,[1],inactive
COCc1nnc(-c2ccc[n+]([O-])c2)n1-c1c(Cl)c(Cl)cc2[nH]c(=O)c(=O)[nH]c12,outcome,[1],inactive
OC[C@H]1O[C@@H]2O[C@H]3[C@H](O)[C@@H](O)[C@@H](O[C@H]4[C@H](O)[C@@H](O)[C@@H](O[C@H]5[C@H](O)[C@@H](O)[C@@H](O[C@H]6[C@H](O)[C@@H](O)[C@@H](O[C@H]7[C@H](O)[C@@H](O)[C@@H](O[C@H]8[C@H](O)[C@@H](O)[C@@H](O[C@H]9[C@H](O)[C@@H](O)[C@@H](O[C@H]1[C@H](O)[C@H]2O)O[C@@H]9CO)O[C@@H]8CO)O[C@@H]7CO)O[C@@H]6CO)O[C@@H]5CO)O[C@@H]4CO)O[C@@H]3CO,outcome,[1],inactive
CCCCNC(=S)NCCCC,outcome,[1],inactive
CCCCCCCCCCC,outcome,[1],inactive
COc1ccc(Cl)cc1C,outcome,[1],inactive
COCCc1ccc(OCC(O)CNC(C)C)cc1 (centres undefined),outcome,[2],inactive
C[C@](N)(Cc1ccc(O)c(O)c1)C(=O)O,outcome,[1],inactive
same,outcome,[2],inactive
O=S(=O)(O)c1ccc(O)c2ncccc12,outcome,[1],inactive
same,outcome,[2],inactive
CC(O)(P(=O)(O)O)P(=O)(O)O,outcome,[1],inactive
same,outcome,[2],inactive
O=C(O)c1ccco1,outcome,[1],inactive
same,outcome,[2],inactive
CCCOCCO,outcome,[1],inactive
same,outcome,[2],inactive
NC(=O)c1nc(-c2cccc(-c3cc(F)ccc3OCC(F)(F)C(F)(F)F)c2)n[nH]1,AC50,[1],active: 8.43 µM
same,AC50,[2],active: 16.9 µM
same,AC50,[3],active: 11.7 µM
same,outcome,[4],inactive
C=CCNCC=C,outcome,[1],inactive
same,outcome,[2],inactive
CCOc1ccc(NC(N)=O)cc1,outcome,[1],inactive
same,outcome,[2],inactive
O=C(O)C(=O)O,outcome,[1],inactive
same,outcome,[2],inactive
Cc1ccc(S(=O)(=O)NCl)cc1,outcome,[1],inactive
same,outcome,[2],inactive
[Cl][Sc]([Cl])[Cl],outcome,[1],inactive
same,outcome,[2],inactive
CCCCCCCCCCCCCCCC(=O)O,outcome,[1],inactive
same,outcome,[2],inactive
C=CC(=O)NCOCC(C)C,outcome,[1],inactive
same,outcome,[2],inactive
CCCCCCCCCCCCCCO,AC50,[1],active: 132 µM
same,outcome,[2],inactive
COc1cc(Cl)c(OC)cc1N,outcome,[2],inactive
CCOC(=O)Cc1cccc2ccccc12,AC50,[1],active: 75.4 µM
same,outcome,[2],inactive
CCCOC(=O)c1ccc(C(=O)OCCC)nc1,outcome,[2],inactive
O=S(=O)(O)c1cccc2c(S(=O)(=O)O)cccc12,outcome,[1],inactive
same,outcome,[2],inactive
COC(=O)C1=C(C)NC(C)=C(C(=O)OCC(C)C)C1c1ccccc1[N+](=O)[O-] (centres undefined),outcome,[1],inactive
same,outcome,[2],inactive
OC[C@H]1O[C@@H](O[C@H]2[C@H](O)[C@@H](O)[C@H](O)O[C@@H]2CO)[C@H](O)[C@@H](O)[C@H]1O,outcome,[2],inactive
C=CC(=O)O[C@H]1C[C@@H]2CC[C@@]1(C)C2(C)C,outcome,[2],inactive
OCCN(CCO)c1ccccc1,outcome,[1],inactive
same,outcome,[2],inactive
CCN(C(=O)c1cc(C)cc(OC[C@H](C)Nc2ccncc2)c1)C(C)C,outcome,[1],inactive
same,outcome,[2],inactive
same,outcome,[3],inactive
same,outcome,[4],inactive
O=S(=O)(O)c1ccc2cc(O)ccc2c1,outcome,[1],inactive
same,outcome,[2],inactive
C=CC(C)(O)CCC=C(C)C (centres undefined),outcome,[1],inactive
same,outcome,[2],inactive
CC(C)(C)c1cccc(C(C)(C)C)c1O,outcome,[2],inactive
[Na+],outcome,[1],inactive
same,outcome,[2],inactive
same,outcome,[4],inactive
CC[C@]12CCCN3CCc4c(n(c5ccccc45)[C@@](O)(C(=O)OC)C1)[C@@H]32,outcome,[1],inactive
same,outcome,[2],inactive
CC(C)c1ccc2c(c1)CC[C@H]1[C@](C)(CN)CCC[C@]21C,outcome,[1],inactive
same,outcome,[2],inactive
Nc1nc2ccccc2[nH]1,outcome,[1],inactive
same,outcome,[2],inactive
COCC(C)O (centres undefined),outcome,[1],inactive
same,outcome,[2],inactive
O=c1c(O)c(-c2ccc(O)cc2O)oc2cc(O)cc(O)c12,outcome,[1],inactive
same,outcome,[2],inactive
same,AC50,[3],active: 28.3 µM
same,AC50,[4],active: 72.3 µM
Cc1occc1C(=O)Nc1ccc(C(=O)N2CCC(F)(F)/C(=C\C(=O)N3CCC(N4CCCCC4)CC3)c3ccccc32)cc1,AC50,[1],active: 3.91 µM
same,outcome,[2],inactive
same,AC50,[3],active: 25.8 µM
same,AC50,[4],active: 30.1 µM
CC(=O)CC(=O)Nc1ccccc1C,outcome,[1],inactive
same,outcome,[2],inactive
[Cl][Eu]([Cl])[Cl],outcome,[1],inactive
same,outcome,[2],inactive
COC(=O)c1ccc(OC)cc1,outcome,[1],inactive
same,outcome,[2],inactive
CN(C)C,outcome,[1],inactive
same,outcome,[2],inactive
C[N+](C)(C)CCCNS(=O)(=O)C(F)(F)C(F)(F)C(F)(F)C(F)(F)C(F)(F)C(F)(F)C(F)(F)C(F)(F)F,outcome,[1],inactive
same,outcome,[2],inactive
O=C1c2ccccc2C(=O)N1CCc1noc(-c2ccc(CN3CCCCCC3)s2)n1,outcome,[1],inactive
same,AC50,[3],active: 9.78 µM
Cc1oc(-c2ccccc2)nc1CCOc1ccc(C[C@H](Nc2ccccc2C(=O)c2ccccc2)C(=O)O)cc1,AC50,[5],active: 0.369 µM
same,AC50,[6],active: 0.0226 µM
